Measured values taken from PubChem BioAssay (EPA / NIEHS).
This is one part of the list. Records with an inconclusive call do not appear. The source made the active and inactive calls. Rule for the calls: active = hit-call score of the fitted dose curve at least 0.9, where 1 is the maximum; inactive = score below 0.9.

Experiment: ATG_M_61_TRANS: Attagene TRANS-FACTORIAL HepG2 Assay for M61 Transcription Factor (Internal Marker) (AID 2282988)
Conditions: HepG2 Attagene TRANS M61 internal marker reporter
Method: ATG_TRANS is a cell-based, multiplexed-readout assay that uses HepG2, a human liver cell line, with measurements taken at 24 hours after chemical dosing in a 24-well plate.ATG_M_61_TRANS is one of 30 assay component(s) measured or calculated from the ATG_TRANS assay. It is designed to make measurements of mRNA induction, a form of inducible reporter, as detected with fluorescence intensity signals by Reverse transcription polymerase chain reaction (RT-PCR) and Capillary electrophoresis technology.Data from the assay component ATG_M_61_TRANS was analyzed into 1 assay endpoint. This assay endpoint, ATG_M_61_TRANS, was analyzed in the positive analysis fitting direction relative to DMSO as the negative control and baseline of activity. Using a type of inducible reporter, measures of mRNA for gain-of-signal activity can be used to understand the background control at the transcription factor-level as they relate to the gene . Furthermore, this assay endpoint can be referred to as a secondary readout, because this assay has produced multiple assay endpoints where this one serves a background control function. To generalize the intended target to other relatable targets, this assay endpoint is annotated to the background measurement intended target family, where the subfamily is internal marker.
Human liver HepG2 cells are transiently transfected with multiple reporter transcription units (MRTUs) in 6-well plates using FuGene 6 reagent (Roche; 3 ml FuGene/1 mg DNA). The MRTU constructs are regulated by a cis-regulating element (promoter). […] A major difference between the CIS and TRANS system is that in CIS activities of endogenous TFs are measured, whereas the TRANS assay evaluates changes in activities of exogenous, chimeric NR-Gal4 proteins. […] At the end of 24 hour incubation, total RNA was isolated using TriZol reagent (Invitrogen). The isolated RNA is then reverse-transcribed using oligo(dT) primer and Mo-MLV reverse transcriptase (Invitrogen) with DNAse I (Ambion) treatment for 30 min. The one-tenth of the produced cDNA was amplified by PCR using Taq DNA polymerase (Invitrogen) and two reporter sequence-specific primers. The PCR products were fluorescently labeled by primer extension with 6-arboxyfluorescein (6-FAM) 5'-labeled reporter sequence-specific primer (2 min at 95 C, 20 s at 68 C and 10 min at 72 C) and these products were digested with 5U of HpaI (New England Biolabs) for 2h at 37 C. The fragments were purified using Qiaquick PCR columns (Qiagen), analyzed on an ABI 3130xL genetic analyzer (Applied Biosystems) with peak positions identified by using a set of X-rhodamine (ROX)-labeled MapMarker1000 molecular weight standards (BioVentures). The raw capillary electrophoresis data was processed using Attagraph software (Attagene).

Question: With `O=[P+](Oc1ccccc1)Oc1ccccc1` as the compound, how does the outcome read?
Answer: The outcome was “inactive”.

Question: For `O=[As]c1ccccc1` (stereo unspecified), which outcome is on record?
Answer: The outcome was “inactive”.

Question: With `CN(C(=O)Cc1cccc2occc12)[C@H]1CC[C@@]2(CCCO2)C[C@@H]1N1CCCC1` as the compound, how does the outcome read?
Answer: Its outcome is “inactive”.

Question: For `O=C1C2CC=CCC2C(=O)N1SC(Cl)(Cl)C(Cl)Cl` (stereo unspecified), which outcome is on record?
Answer: Its outcome is “inactive”.

Question: With `O=C(Cl)Oc1ccccc1` as the compound, how does the outcome read?
Answer: The outcome was “inactive”.

Question: With `CCCCC(CC)CO[P+](=O)OCC(CC)CCCC` (stereo unspecified) as the compound, how does the outcome read?
Answer: Its outcome is “inactive”.

Question: With `CCCCO[P+](=O)OCCCC` as the compound, how does the outcome read?
Answer: The outcome was “inactive”.

Question: For `O=[N+]([O-])c1ccc([N+](=O)[O-])cc1`, which outcome is on record?
Answer: The outcome was “inactive”.

Question: With `O=C(Cl)OCCOC(=O)Cl` as the compound, how does the outcome read?
Answer: The outcome was “inactive”.

Question: Which outcome does the source give for `CC(C)CCCCCCCOP(OCCCCCCCC(C)C)Oc1ccccc1` here?
Answer: Its outcome is “inactive”.

Question: Which outcome does the source give for `ClP(Cl)c1ccccc1` here?
Answer: The outcome was “inactive”.
